Test [1] concerns the target Mu-type opioid receptor (Homo sapiens, UniProt P35372). Put plainly: Concentration required to stimulate [35S]GTP-gamma-S, binding to human opioid receptor mu 1 in cell membrane. On the technique in general: Binding of GTPγS marks nucleotide exchange on a G protein.
The target of test [2] is Kappa-type opioid receptor (Homo sapiens, UniProt P41145). Put plainly: Concentration required to stimulate [35S]GTP-gamma-S, binding to human opioid receptor kappa 1 in cell membrane.
The target of test [3] is Nociceptin receptor (Homo sapiens, UniProt P41146). Put plainly: Concentration required to stimulate [35S]GTP-gamma-S, binding to human NOP receptor in cell membrane.

The chains behind the UniProt entries cited, without tags or fusion partners.
UniProt P35372, whole entry: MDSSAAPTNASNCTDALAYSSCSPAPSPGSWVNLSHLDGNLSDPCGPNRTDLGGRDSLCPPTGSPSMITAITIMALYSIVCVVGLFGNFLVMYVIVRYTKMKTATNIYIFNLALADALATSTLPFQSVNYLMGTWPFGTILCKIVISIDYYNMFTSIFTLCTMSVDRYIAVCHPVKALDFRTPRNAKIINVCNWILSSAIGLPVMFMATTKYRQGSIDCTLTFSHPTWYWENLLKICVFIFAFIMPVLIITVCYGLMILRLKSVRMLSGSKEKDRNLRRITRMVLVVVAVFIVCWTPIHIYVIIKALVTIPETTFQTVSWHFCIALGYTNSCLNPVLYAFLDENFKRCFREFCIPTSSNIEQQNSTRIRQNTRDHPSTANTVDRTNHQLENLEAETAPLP
UniProt P41145, whole entry: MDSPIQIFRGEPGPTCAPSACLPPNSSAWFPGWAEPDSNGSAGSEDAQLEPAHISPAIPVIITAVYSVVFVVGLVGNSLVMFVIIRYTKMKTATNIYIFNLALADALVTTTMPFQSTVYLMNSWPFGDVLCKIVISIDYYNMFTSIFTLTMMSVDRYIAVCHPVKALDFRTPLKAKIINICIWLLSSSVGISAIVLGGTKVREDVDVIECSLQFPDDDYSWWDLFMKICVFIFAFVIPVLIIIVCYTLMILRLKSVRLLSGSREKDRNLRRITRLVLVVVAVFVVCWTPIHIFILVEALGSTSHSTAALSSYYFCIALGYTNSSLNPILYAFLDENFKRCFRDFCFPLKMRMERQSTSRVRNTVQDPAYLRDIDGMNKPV
UniProt P41146, whole entry: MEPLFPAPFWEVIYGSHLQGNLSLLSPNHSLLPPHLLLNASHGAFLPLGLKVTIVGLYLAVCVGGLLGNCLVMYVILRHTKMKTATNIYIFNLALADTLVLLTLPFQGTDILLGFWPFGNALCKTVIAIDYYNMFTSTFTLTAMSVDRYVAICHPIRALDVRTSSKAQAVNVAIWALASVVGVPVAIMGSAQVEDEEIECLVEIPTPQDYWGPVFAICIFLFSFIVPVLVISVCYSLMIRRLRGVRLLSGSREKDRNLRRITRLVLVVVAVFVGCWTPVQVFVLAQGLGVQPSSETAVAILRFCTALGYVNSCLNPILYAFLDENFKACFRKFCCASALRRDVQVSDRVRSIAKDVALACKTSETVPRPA

Where only a bound is given, the exact number is not on record here.

What is called EC50 is the concentration that produces a half-maximal response. Higher therefore signals a less potent agent.

As to `O=c1[nH]c2ccccc2n1[C@H]1CCN2[C@H](CCC[C@H]2c2ccccc2)C1`, the EC50 in test [1], in test [2] and in test [3] was greater than 10 µM in each case.
`O=c1[nH]c2ccccc2n1[C@@H]1CCN2[C@H](CCC[C@H]2c2ccccc2)C1`: the EC50 in test [1] was determined as 0.198 µM; in test [2] it was 0.0047 µM; in test [3], 0.065 µM.
For the compound `CCn1c(=O)n([C@@H]2CCN3[C@H](CCC[C@H]3c3ccccc3)C2)c2ccccc21`, the values for the EC50 in test [1], in test [2] and in test [3] were 0.105 µM, 0.21 µM and 0.165 µM, respectively.
On the same counts, the results for `CCn1c(=O)n([C@H]2CCN3[C@H](CCC[C@H]3c3ccccc3)C2)c2ccccc21` are greater than 10 µM, greater than 10 µM and greater than 10 µM.
